Molecules are shown by their SMILES.

Experimental findings from patent publication US20200000755A1, “TREATMENT OF INFLAMMATORY DISORDERS IN NON-HUMAN MAMMALS” (THE REGENTS OF THE UNIVERSITY OF CALIFORNIA, priority 2012, published 2020) are described below.

The subject of the assay is horse with pain due to laminitis.

`O=C(Nc1ccc(OC(F)(F)F)cc1)N[C@H]1CC[C@H](Oc2ccc(C(=O)O)cc2)CC1` [compound 1728]: the “status at 30 days follow-up” value (30 days follow-up) was “normotensive and had no evidence of lameness”. Also, for the setting “laminitic horse, 0.1 mg/kg once daily IV”, the “Pain scores following administration” value is “decreased sharply and remarkably”. Further, the “hypertension (blood pressure) as treatment progressed” value (laminitic horse, days 8 to 12) is listed as “improved gradually towards normal physiologic values”.
